Molecular target: ANF Rezeptor (Membranpräparation von Rindernebennieren)
Test: Binding test: displacement of radiolabelled ANF from its receptor (membrane preparation of bovine adrenal glands)
Parameters: species or system Rind
Settings: inhibition of ¹²⁵I-ANF (18,2 pM) binding, 24 h at 4°C; read-out: IC₅₀
Method: In einem Bindungstest nach Bürgisser et al. [Biochem. Biophys. Res. Comm. 133, 1201 (1985)] wurde die Verdrängung von radioaktiv-markiertem ANF von dessen Rezeptor durch den ANF-Antagonisten gemessen. Als Rezeptorpräparation wurde eine Membranpräparation von Rindernebennieren verwendet. Zu 100 µl dieser Präparation in 50 mM Tris/HCl, 500 mM MgCl₂, 1 mM EDTA. 0,5% Rinderserumalbumin und 1 mM o-Phenanthrolin, pH 7,6, wurden ¹²⁵I-ANF (20'000 cpm. 18,2 pM) in 145 µl dieses Puffers und der Ligand in 5 µl Dimethylsulfoxid gegeben. Diese Mischung wurde 24 Stunden bei 4°C inkubiert und gebundenes von freiem ANF durch schnelle Filtration über Whatman GF/C Glasfaserfilter abgetrennt. Nach dreimaligem Waschen der Filter mit obigem Puffer (3 x 4 ml) wurden die Filter zerschnitten und deren Radioaktivität im Gamma-Zähler gemessen. Die Inhibition der Bindung wurde quantitativ mit der IC₅₀ erfasst, worunter diejenige Konzentration an entsprechendem Liganden zu verstehen ist, bei der die Bindung von ¹²⁵I-ANF halbmaximal gehemmt wird. Tabelle

For `CC[C@H](C)[C@@H]1NC(=O)[C@H](CCCNC(=N)N)NC(=O)[C@H](CC(=O)O)NC(=O)[C@H]([C@@H](C)CC)NC(=O)[C@H](CCCNC(=N)N)NC(=O)CNC(=O)CNC(=O)[C@H](Cc2ccccc2)NC(=O)[C@@H](NC(=O)[C@H](CO)NC(=O)[C@H](CO)NC(=O)[C@H](CCCNC(=N)N)NC(=O)[C@H](CCCNC(=N)N)NC(=O)[C@H](CC(C)C)NC(=O)[C@@H](N)CO)CSSC[C@@H](C(=O)N[C@@H](CC(N)=O)C(=O)N[C@@H](CO)C(=O)N[C@@H](Cc2ccccc2)C(=O)N[C@@H](CCCNC(=N)N)C(=O)N[C@@H](Cc2ccc(O)cc2)C(=O)O)NC(=O)CNC(=O)[C@H](CC(C)C)NC(=O)CNC(=O)[C@H](CO)NC(=O)[C@H](CCC(N)=O)NC(=O)[C@H](C)NC(=O)CNC1=O` [Ratten ANF (99-126), reference compound], the IC50 was 110 pM.

Source: patent EP0415219A1, “ANF-Antagonist” (F. HOFFMANN-LA ROCHE AG, priority 1989, dated 1991)
